# Values quoted from earlier work, collected in patent publication US12138398B2, “Methods and devices for providing a stimulus to a subject to induce gamma oscillations” (Massachusetts Institute of Technology, priority 2015, dated 2024).
# Tested on: AD patients
# Settings: AD subjects; cited from earlier work
substance,measurement,value
bapineuzumab,clinical outcome on cognition,lack of cognitive benefit
